Source: ChEMBL document CHEMBL1138075, “The neuroprotective activity of GPE tripeptide analogues does not correlate with glutamate receptor binding affinity” (Bioorg Med Chem Lett, 2006)

Biological target: Glutamate NMDA receptor
Assay: Displacement of L[3H]glutamate from GluR in rat brain synaptic membrane
Assay type: cell membranes
How it was run: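 Competitive radioligand binding to glutamate receptors: displacement of L-[³H]glutamate from rat brain synaptic membranes, with test concentrations up to 100 μM.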

SMILES: C[C@@]1(C(=O)N[C@@H](CCC(=O)O)C(=O)O)CCCN1C(=O)CN (stereo in doubt; 7) [TROFINETIDE]
- Ki: 7.96 µM
